{"sequences": {"note": "Sequences of proteins named here, by UniProt entry; tags and fusion partners are left off. Residues count along the entry.", "UniProt P35563, 24-483": "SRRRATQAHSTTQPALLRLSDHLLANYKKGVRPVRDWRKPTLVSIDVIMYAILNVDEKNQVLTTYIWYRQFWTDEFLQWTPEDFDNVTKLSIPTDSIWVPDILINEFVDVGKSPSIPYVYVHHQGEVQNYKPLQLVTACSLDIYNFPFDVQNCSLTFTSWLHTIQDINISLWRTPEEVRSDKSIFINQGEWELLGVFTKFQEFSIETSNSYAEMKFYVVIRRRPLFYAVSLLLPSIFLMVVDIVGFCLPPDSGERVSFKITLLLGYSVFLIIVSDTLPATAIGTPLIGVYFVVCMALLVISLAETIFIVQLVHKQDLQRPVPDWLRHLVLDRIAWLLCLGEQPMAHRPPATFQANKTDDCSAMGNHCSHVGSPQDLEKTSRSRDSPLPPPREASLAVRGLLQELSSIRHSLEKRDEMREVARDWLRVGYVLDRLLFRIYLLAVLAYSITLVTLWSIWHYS"}, "source": "patent US5656637A", "about": "“Thiazole derivatives” (Yamanouchi Pharmaceutical Co., Ltd., priority 1990, dated 1997)", "target": "T1, 5-HT3 receptor (Rattus norvegicus, UniProt P35563)", "T1 construct": "Male Wistar rats, 9 weeks old, were anesthetized with urethane; from tissue; host or cells: whole animal in vivo: anesthetized male Wistar rat (endogenous receptor; tissue not given)", "assay": "5-HT3 receptor stimulating action (Bezold-Jarisch reflex evoking action) in anesthetized rat, i.v.", "assay_type": "in vivo, rat (male Wistar)", "procedure": "Male Wistar rats, 9 weeks old, were anesthetized with urethane 1 g/kg i.p. and the blood pressure and the heart rate were determined under artificial ventilation.\n1) 5-HT3 receptor stimulating action (Bezold-Jarisch reflex evoking action)", "data": [{"compound": "NCCc1c[nH]c2ccc(O)cc12", "note": "[Serotonin, serotonin]", "values": [{"measurement": "BJ reflex evoking activity Emax (maximal bradycardiac response)", "setting": "i.v., anesthetized rat", "value": 257.9, "unit": "beats/min"}, {"measurement": "ED50", "setting": "rat, iv, read-out: BJ reflex evoking activity ED50", "value": 0.0156, "unit": "mg/kg"}]}]}
